The subject of this data set is HeLa cells. In words: Cytotoxicity in HeLa cells. As to conditions: bleomycin 2 μM, alone.

As for bleomycin, the cytotoxicity is listed as 22%.

The values are drawn from article PMC8284926 (Journal of the American Chemical Society, 2021).
